Assay results from patent publication US20050214310A1 (priority 2004, published 2005).

What follows are substances tested on H3677 melanoma cell line (assay: In vitro cytotoxicity assay (Alamar Blue) on H3677 melanoma cell line). Conditions: drug alone, H3677 melanoma cells, 4 hr exposure, washing, 96 hr incubation at 37° C.
Format: cell-based

| Substance | IC50 |
| --- | --- |
| Mel-L-Val-NH2 | 0.37 µM |
| Mel-L-Phe-L-Phe-NH2 | 0.025 µM |
| Mel-(1S,2R)-norephedrine | 0.02 µM |
| Mel-L-phenylglycine amide | 0.38 µM |
| Mel-L-Phe | 7.5 µM |
| Mel-L-Phe-ol | 1.7 µM |
| Mel-L-Ser(OBz)-NH2 | 0.1 µM |
